Reference: publication PMC10384010, “Chromatographic Data in Statistical Analysis of BBB Permeability Indices” (Membranes, 2023)

Legend:
[1] = Normal-phase TLC on silica gel 60 F254 (Rf); type: physicochemical; conditions: water:methanol:acetonitrile 60:20:20, ammonium acetate pH 7.4
[2] = Reversed-phase TLC on RP-2 silanized plates (Rf); type: physicochemical; conditions: silica gel 60 RP-2 F254 silanized; water:methanol:acetonitrile 60:20:20, ammonium acetate pH 7.4

Row | Compound | NP (Rf from NP TLC plate) [1] | RP (Rf from RP-2 TLC plate) [2]
1 | PABA | 0.89 | –
2 | CN1[C@@H]2CC[C@H]1C[C@@H](OC(=O)C(CO)c1ccccc1)C2 (some centres unmarked) [atropine] | 0.27 | 0.73
3 | CCCCC(=O)N(Cc1ccc(-c2ccccc2-c2nnn[nH]2)cc1)[C@H](C(=O)O)C(C)C [valsartan] | 0.89 | 0.97
